From patent EP0479899B1, “VASODILATORY AND IMMUNE SUPPRESSANT PEPTIDES” (THE PRESIDENT AND FELLOWS OF HARVARD COLLEGE, priority 1989, dated 1991) come the findings set out here.

The subject of one assay is rabbit skin. As to the kind of experiment: Vasodilator assay: erythema induction after intradermal injection into shaved rabbit back. Format: in vivo. How it is done:
Reversed-phase high-performance liquid chromatography (HPLC) on the extract of 105 pairs of salivary glands is depicted in Figure 1. 105 pairs of salivary glands were dissected in PBS. Lysates were made by freeze-thawing. The extract was spun in a microcentrifuge for 30 seconds before being applied to the column. A C-18 micropellicular HPLC column (Glycotech) was equilibrated with 20% acetonitrile/0.1% trifluoroacetic acid at 50°C at a flow rate of 0.6ml/minute. Three minutes after injection, a linear gradient was run for 20 minutes reaching 44% acetonitrile. Fractions were collected every 30 seconds and assayed for vasodilator activity. The vasodilator assay was performed by diluting material from the gradient 10 fold and injecting 50 µl intradermally into the shaved back of a rabbit. The development of erythema at the injection site corresponded with the peak indicated. One µg of human CGRP, used as a control peptide, eluted as a peak of equal area, five minutes later (not shown). This observation implies that approximately ten nanograms of LP are present per pair of salivary glands.
The amount of LP injected into the skin was based on the area of the absorbing peak collected from RP-HPLC. […] The area of resultant erythema was measured at 2 hours (triangles) and again at 4 hours (circles). […]

A further assay deals with Human macrophages. Nature of the assay: H₂O₂ production by IFN-γ activated macrophages (scopoletin fluorometric assay). Format: cell-based. Conditions: 3 hrs pretreatment. An excerpt: Monocytes obtained by leukophoresis of healthy volunteers were purified on Ficoll-hypaque and Percoll (Pharmacia, Piscataway, NJ) gradients and placed into microtiter wells (5 x 10⁵/well) in RPMI-1640 (GIBCO, Grand Island, NY) with 5% pooled normal human serum and 1% gentamycin (M.A. Bioproducts, Walkinville, MD). The cells were greater than 95% macrophages as judged by esterase staining. (The Manual of Macrophage Methodology, Herscowitz et al., eds. Marcel Dekker, NY, p. 199 (1981)). After one day in culture, non-adherent cells were rinsed away and the macrophages were treated, e.g., with human CGRP, Calcitonin, or LP as described below. Following treatment, the macrophages were incubated for three days with a concentration of from 100 to 400 units interferon gamma (Amgen Biologicals, Thousand Oaks, CA), in medium with 15% pooled normal human serum, at which time the H₂O₂ concentration in the cells was determined.
H₂O₂ production by macrophages was determined by fluorometric assay using the fluorophore scopoletin (de la Harpe et al., J. Immunol. Methods 78: 323 (1985)). […] The amount of H₂O₂ released per culture is determined as nanomoles H₂O₂. […] DNA was determined by a fluorescence assay (Kissane et al., J. Biol. Chem. 233: 184 (1958). […]

Assay [1] relates to BALB/c peritoneal macrophages. Nature of the assay: Macrophage presentation of OVA to OVA-specific T-cell line (³H TdR incorporation). Format: cell-based, BALB/c mice. Conditions: for Response(CPM±SD) to stimulation with 200mg/ml OVA / Response(CPM±SD) to stimulation with 400mg/ml OVA: rat CGRP 1.25 x 10⁻⁷ M preincubation 3 hrs. An excerpt:
An OVA-specific T-cell line was produced in BALB/c mice (Titus et al., S. Immunol. 133:1594 (1984)). The line was L3T4⁺ and was maintained by successive cycles of restimulation and rest in vitro. (Kimono et al., J. Exp. Med. 152:759 (1980)). As a source antigen-presenting cells, BALB/c peritoneal cells (Titus et al., Clin. Exp. Immunol. 55:157, 1984) were placed into microtiter wells (10⁴/well) in Dulbecco's modified Eagle's medium (DMEM) (Maryanski et al., Eur. J. Immunol. 12:401 (1982) supplemented with 5% fetal calf serum (Hyclone, Logan, UT) and cultured overnight. Non-adherent cells were rinsed out of the wells, and medium with or without rat CGRP (1.25 x 10⁻⁷ M) was added as a pre-incubation step. Three hours later the wells were rinsed to remove the CGRP and the indicated number of OVA-specific T-cells (Sigma, St. Louis, MO) were added. At varying times thereafter, the wells were pulsed with lµCi³H methylthymidine (³H TdR) (Amersham, Arlington Heights, IL) and thymidine incorporation was assessed (Titus et al., J. Immunol. 133:1594 (1984)).
BALB/c peritoneal macrophages (10⁴/well) were used as antigen-presenting cells. The macrophages were preincubated in 1.25 x 10⁻⁷M rat CGRP for three hrs., and the CGRP was then washed away. OVA-specific T-cells and OVA were then added to the cultures to assist the ability of the CGRP-treated macrophages to present antigen as measured by the degree of proliferation of the T-cells. Forty-eight hours later the cultures were pulsed with ³H TdR to assess the degree of proliferation of the T-cells. The numbers in the Table below represent the mean thymidine incorporation of quadruplicate cultures ± SD. Background responses (macrophages + T-cells but no OVA, or T-cells + OVA but no macrophages) ranged between 300 to 500 CPM. Similar results were obtained with varying numbers (10³ to 2 X 10⁴/well) of peritoneal cell macrophages. The results in the Table indicate that the ability of murine macrophages to present OVA to an OVA-specific T-cell line was inhibited by CGRP. Similar results were obtained with different numbers of T-cells and different doses of OVA to stimulate the cultures.

With “calcitonin gene-related peptide (ACDTATCVTHRLAGLLSRSGGVVKNNFVPTNVGSKAF; Calcitonin gene-related peptide 1; UniProt P06881 83-119, looked up) [CGRP, neuropeptide calcitonin gene-related peptide, human, synthetic; vasodilator comparator and immune suppressant]”, the “erythema at injection site” value in the assay on rabbit skin (at 4 hours after injection, rabbit skin) is recorded as “only residual erythema”. Moreover, the “amount giving an equivalent erythema” value in the assay with rabbit skin (two hours after injection, 50 µl of PBS into shaved back of a rabbit, triplicate injections) came out at 50 nanograms. Also, in the assay on Human macrophages (concentrations above 2.5 x 10⁻⁹ M, IFN-γ 200 units/ml), the “H₂O₂ production at higher concentrations” value is “completely abrogated”. Moreover, the “ability of the macrophages to produce H₂O₂ response to IFN-γ” value in the assay with Human macrophages (human CGRP, IFN-γ 100 to 400 units/ml, 72 hrs) was “markedly inhibit”. For the same substance, in assay [1] (1.25 x 10⁻⁷M, preincubation three hrs), the “ability of murine macrophages to present OVA to an OVA-specific T-cell line” value is “inhibited”. Moreover, the “Response(CPM±SD) to stimulation with 200mg/ml OVA” value is listed as 1,620± 910 CPM in assay [1] (15,000 T cells/well, medium control 5,710±1,300) and 830± 500 CPM in assay [1] (30,000 T cells/well, medium control 5,230±1,150). In addition, the “Response(CPM±SD) to stimulation with 400mg/ml OVA” value in assay [1] (15,000 T cells/well, medium control 8,450±1,140) is 2,620± 700 CPM; in assay [1] (30,000 T cells/well, medium control 10,970± 800), 3,380±1,870 CPM.
